From publication PMC3135172 come the findings set out here.

The target in this experiment is BPTF bromodomain (human). In words: ITC.

As usually defined, the Kd is the constant that tells how readily two partners part at equilibrium. High values mean a looser complex, low ones a tighter complex. Substance H4K16ac peptide displayed a dissociation constant (Kd) of 99 µM.
